pIC50: −log10 of the molar value.
What was measured:
[1] = molecular target: recombinant human His-tagged Tyk2 pseudokinase domain (His-TVMV-Tyk2, 575-869) (Homo sapiens, UniProt P29597); experiment: Probe Displacement Assay (HTRF Format); settings: read-out: Binding IC50, 0.5 nM Tyk2 pseudokinase domain, 1 h room temperature
[2] = tested on: IL-23 stimulated Kit225 T cells with STAT-dependent luciferase reporter; experiment: Kit225 T Cell Assay, IL-23 stimulated STAT-dependent luciferase reporter; settings: read-out: IL23 Kit 225 IC50, 20 ng/mL human recombinant IL-23, 5-6 hours
Description: (§1) Kit225 T cells with a stably-integrated STAT-dependent luciferase reporter were plated in RPMI (Gibco) containing 10% heat-inactivated FBS (Gibco) and 100 U/mL PenStrep (Gibco). The cells were then stimulated with either 20 ng/mL human recombinant IL-23 or 200 U/mL human recombinant IFNα (PBL InterferonSource) for 5-6 hours. Luciferase expression was measured using the STEADY-GLO® Luciferase Assay System (Promega) according to the manufacturer's instructions. Inhibition data were calculated by comparison to no inhibitor control wells for 0% inhibition and non-stimulated control wells for 100% inhibition. Dose response curves were generated to determine the concentration required to inhibit 50% of cellular response (IC50) as derived by non-linear regression analysis.

Protein sequences, listed by entry. Tags and fused reporters are not part of them. Chains listed by the source or under a name are the forms on record and can include a tag or linker. Residues count along the entry.
UniProt P29597, 575-869 with tags or gaps: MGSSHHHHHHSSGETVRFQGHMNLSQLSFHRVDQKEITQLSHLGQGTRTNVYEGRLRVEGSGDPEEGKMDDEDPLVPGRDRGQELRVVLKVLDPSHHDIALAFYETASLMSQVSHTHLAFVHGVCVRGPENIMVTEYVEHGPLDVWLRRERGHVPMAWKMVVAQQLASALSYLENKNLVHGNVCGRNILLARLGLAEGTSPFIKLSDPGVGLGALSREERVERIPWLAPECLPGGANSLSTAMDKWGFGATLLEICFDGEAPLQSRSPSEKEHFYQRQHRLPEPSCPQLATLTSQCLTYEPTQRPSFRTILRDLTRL

[3] = tested on: IFNα stimulated Kit225 T cells with STAT-dependent luciferase reporter; experiment: Kit225 T Cell Assay, IFNα stimulated STAT-dependent luciferase reporter; settings: read-out: IFN[…] Kit 225 IC50, 200 U/mL human recombinant IFNα, 5-6 hours
Description: as §1

- pIC50 [1]: 9.32
- pIC50 [2]: 6.37
- pIC50 [3]: 6.40
Compound: [2H]C([2H])([2H])NC(=O)c1nnc(Nc2ccc(-c3c(F)cccc3F)cn2)cc1Nc1ncccc1P(C)(C)=O

Reference: patent US10294256B2, “Phosphine oxide alkyl amide substituted heteroaryl compounds as modulators of IL-12, IL-23 and/or IFN alpha responses” (BRISTOL-MYERS SQUIBB COMPANY, priority 2016, dated 2019)
